Results on 1 substance are retold here after US6900336B2, “8-aza-11-deoxy prostaglandin analogues” (Syntex (U.S.A.) LLC, priority 2001, dated 2005).

Amino acid sequences for entries named in this document (tags omitted). A change or cut given only in a name is not applied to a line headed by its entry.
UniProt P43116: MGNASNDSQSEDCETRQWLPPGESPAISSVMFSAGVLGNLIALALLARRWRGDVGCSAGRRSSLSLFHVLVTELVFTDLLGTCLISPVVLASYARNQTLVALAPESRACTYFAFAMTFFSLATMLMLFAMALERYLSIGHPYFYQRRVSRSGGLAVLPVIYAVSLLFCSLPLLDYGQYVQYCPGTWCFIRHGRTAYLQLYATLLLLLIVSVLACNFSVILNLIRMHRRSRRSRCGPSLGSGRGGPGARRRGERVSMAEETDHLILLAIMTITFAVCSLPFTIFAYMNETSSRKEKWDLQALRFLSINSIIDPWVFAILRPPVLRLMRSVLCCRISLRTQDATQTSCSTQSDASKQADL
UniProt P35408: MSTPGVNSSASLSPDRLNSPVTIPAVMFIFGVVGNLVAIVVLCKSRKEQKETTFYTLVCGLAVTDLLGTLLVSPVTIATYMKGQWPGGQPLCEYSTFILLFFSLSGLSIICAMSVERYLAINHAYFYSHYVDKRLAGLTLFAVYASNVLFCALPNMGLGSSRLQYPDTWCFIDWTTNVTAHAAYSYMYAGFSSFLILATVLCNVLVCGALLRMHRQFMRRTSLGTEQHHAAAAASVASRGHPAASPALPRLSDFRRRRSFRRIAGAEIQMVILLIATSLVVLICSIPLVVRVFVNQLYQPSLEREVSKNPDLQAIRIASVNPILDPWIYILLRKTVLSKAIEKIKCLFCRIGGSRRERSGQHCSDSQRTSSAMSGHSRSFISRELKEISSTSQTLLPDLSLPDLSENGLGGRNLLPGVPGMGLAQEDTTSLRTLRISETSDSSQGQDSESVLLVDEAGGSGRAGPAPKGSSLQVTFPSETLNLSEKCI

The target in one test is T1, rEP3 Receptor (UniProt P34980).
T1 sequence (P34980 1-365): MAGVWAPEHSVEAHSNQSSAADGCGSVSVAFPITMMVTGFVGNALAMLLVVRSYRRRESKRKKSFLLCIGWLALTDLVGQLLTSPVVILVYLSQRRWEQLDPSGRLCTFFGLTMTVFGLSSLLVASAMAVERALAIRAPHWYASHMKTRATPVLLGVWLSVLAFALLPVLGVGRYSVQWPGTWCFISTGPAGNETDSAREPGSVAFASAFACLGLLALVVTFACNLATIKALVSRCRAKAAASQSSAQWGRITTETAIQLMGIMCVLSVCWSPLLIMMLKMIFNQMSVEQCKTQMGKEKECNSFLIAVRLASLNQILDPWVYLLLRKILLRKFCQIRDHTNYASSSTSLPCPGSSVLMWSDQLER
The test can be described thus: Competitive Binding Assay of [3H]PGE2 to rEP3 Receptor. The note with it: 3 nM [3H]PGE2, membrane fraction, 1 hr at 30° C.; read-out: EP3, Ki. As to the method:
(§1) Competitive Binding Assay of [^3H]PGE2 to rEP1 or rEP3 Receptor
(§2) The cells were maintained in culture then harvested upon confluency. […] Incubations were conducted for 1 hr at 30° C. prior to separation of the bound and free radioligand by rapid filtration. Residual [^3H]PGE2 bound to the filter was quantitated by liquid scintillation counting. The Ki of a compound was calculated by the program of one site binding calculation of Prism.

The target in a further test is T2, EP2 Receptor (Homo sapiens, UniProt P43116).
T2 construct: host or cells: unnamed cultured cells, membrane fraction
Put plainly: EP2 Ki (table under competitive [3H]PGE2 binding assay).

For the next test, the target named is T3, EP4 Receptor (Homo sapiens, UniProt P35408).
T3 construct: host or cells: unnamed cultured cells, membrane fraction
Put plainly: EP4 Ki (table under competitive [3H]PGE2 binding assay). As to the method:
[Worded in the source for another target; this target is reported under the same test.] as §1
as §2, with “confluency. The membrane was prepared by two times of centrifugation (12,000× g for 15 min) following lysis of cells by polytron homogenization of 15 sec. in 10 volume of 20 mM Hepes pH 7.4 containing 1 mM EDTA, 10 mM MgCl2, 20 uM indomethacin at 4° C.” for “confluency.”

Usually Ki stands for the dissociation constant of the complex between target and ligand, obtained from inhibition or displacement. Consider “7-{(R)-2-[(E)-3-(4′-Chloro-2′-methyl-biphenyl-3-yl)-3-hydroxy-propyl]-5-oxo-pyrrolidin-1-yl}-heptanoic acid [Compound 50]”, for which the Ki at rEP3 Receptor was over 100 µM; on EP2 Receptor, 26 µM; on EP4 Receptor, 0.008 µM.
